Assay [1] addresses T1, COX-1 (Homo sapiens, UniProt P23219).
In assay [2] the target is T1, COX-1. The note with it: cited from earlier work.
In assay [3] the test system is lymph node mononuclear cells from MAIDS and control mice. Put plainly: anti-CD3 induced T cell proliferation in mixed unsorted lymph node cells, compound added in vitro. As to conditions: Mus musculus, read-out: concentration producing half-maximal effect (ED50) on T cell proliferation.
[4] abbreviates: read-out: COX-1 IC50; recombinant human PGH synthesis; Laneuvill et al. 1994; cited from earlier work.

Protein sequences, listed by entry. Tags and fused reporters are not part of them. Residues count along the entry.
UniProt P23219, 24-599: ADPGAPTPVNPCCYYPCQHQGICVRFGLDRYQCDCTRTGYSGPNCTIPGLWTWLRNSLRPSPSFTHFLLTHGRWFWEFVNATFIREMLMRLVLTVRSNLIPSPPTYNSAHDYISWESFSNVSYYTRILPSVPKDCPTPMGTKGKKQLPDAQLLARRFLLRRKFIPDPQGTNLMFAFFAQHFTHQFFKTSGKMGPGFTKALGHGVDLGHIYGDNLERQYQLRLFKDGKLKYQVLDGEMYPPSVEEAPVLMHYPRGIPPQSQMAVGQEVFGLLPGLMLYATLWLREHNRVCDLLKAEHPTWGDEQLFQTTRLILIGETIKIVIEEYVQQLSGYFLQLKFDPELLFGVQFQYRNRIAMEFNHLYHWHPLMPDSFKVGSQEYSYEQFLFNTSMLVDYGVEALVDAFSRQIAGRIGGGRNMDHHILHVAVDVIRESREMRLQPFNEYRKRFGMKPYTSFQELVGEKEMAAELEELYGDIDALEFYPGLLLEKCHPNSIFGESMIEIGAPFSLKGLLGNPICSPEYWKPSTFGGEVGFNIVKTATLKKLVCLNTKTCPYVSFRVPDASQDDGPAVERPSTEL

Read-outs that look alike come from different tables or passages of the source.

A word on the IC50: it is the midpoint of a concentration-inhibition curve. In the case of `CC(C(=O)O)c1ccc(-c2ccccc2)c(F)c1` (centres unmarked) [Flubiprofen], the IC50 at COX-1 [1] (setting [4]) was 0.5 µM.

Turning to `CCCCC1C(=O)N(c2ccccc2)N(c2ccccc2)C1=O` [Phenylbutazone], the IC50 at COX-1 [1] (recombinant human PGH synthesis; Laneuvill et al. 1994; read-out: COX-1 IC50; cited from earlier work) was 16 µM. Consider `CN1C(C(=O)Nc2ccccn2)=C(O)c2ccccc2S1(=O)=O` [Piroxicam], for which the IC50 on COX-1 [1] (setting [4]) is 17.7 µM. As to `CS(=O)(=O)c1ccc(C2=C(c3ccccc3)C(=O)OC2)cc1` [rofecoxib], at COX-1 [2], the COX-1 inhibition entry was “inhibited only at micromolar concentrations”. Besides, in assay [3], the EC50 is about 10 nM.

The values above are taken from patent US7790738B2, “Methods of treating and preventing AIDS using of COX-2 inhibitors” (Lauras AS, priority 2000, dated 2010).
